{"source": "ChEMBL document CHEMBL1139291", "about": "“Syntheses and opioid receptor binding properties of carboxamido-substituted opioids” (Bioorg Med Chem Lett, 2009)", "key": {"CHO [1]": {"test_system": "CHO", "test": "Ratio of Ki for human mu opioid receptor to Ki for human kappa opioid receptor expressed in CHO cells", "assay_type": "cell-based"}, "CHO [2]": {"test_system": "CHO", "test": "Ratio of Ki for human delta opioid receptor to Ki for human kappa opioid receptor expressed in CHO cells", "assay_type": "cell-based"}}, "data": [{"smiles": "CO[C@@]12CC[C@@]3(C[C@@H]1[C@@](C)(O)C(C)(C)C)[C@H]1Cc4ccc(C(N)=O)c5c4[C@@]3(CCN1CC1CC1)[C@H]2O5", "values": [{"measurement": "Ratio Ki", "setting": "CHO [1]", "result": 0.4}, {"measurement": "Ratio Ki", "setting": "CHO [2]", "result": 26}]}]}
